62 molecules from patent publication US8541572B2 can be followed below.

Amino acid sequences for entries named in this document (tags omitted). Residues count along the entry.
UniProt P78536, 215-477 S266A/N452Q: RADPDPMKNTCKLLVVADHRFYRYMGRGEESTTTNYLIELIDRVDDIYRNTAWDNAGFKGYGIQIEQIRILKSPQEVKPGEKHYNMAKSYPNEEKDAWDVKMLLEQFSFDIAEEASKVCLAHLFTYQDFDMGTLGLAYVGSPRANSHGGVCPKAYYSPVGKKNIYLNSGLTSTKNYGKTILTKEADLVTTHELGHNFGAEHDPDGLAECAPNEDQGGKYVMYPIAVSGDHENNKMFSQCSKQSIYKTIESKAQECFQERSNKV

SMILES strings stand for the structures. Where two headings read alike, the source gives them in different places.

For the assay, the target named is recombinant human TACE catalytic domain (rhTACEc) (Homo sapiens (Human), UniProt P78536, N452Q/S266A). In words: TACE kinetic FRET assay (cleavage of internally quenched peptide substrate TNF-FRET 2), Ki.
Setting [1] is: recombinant human TACE catalytic domain, FRET assay.

For `COc1ccc2c(c1F)C(=O)N(C[C@@]1(C#Cc3cncc(NC(=O)C4CCN(C)CC4)c3)NC(=O)NC1=O)C2` [Compound 1907], the Ki (as a rule, the equilibrium dissociation constant of an inhibitor or competing ligand from its target) under setting [1] was 0.18 nM.
As to `COc1ccc2c(c1)C(=O)N(C[C@@]1(C#Cc3cncc(NC(=O)C4CCN(C)CC4)c3)NC(=O)NC1=O)C2` [Compound 1908], under setting [1], the Ki was determined as 0.35 nM.
With `COc1ccc2c(c1)C(=O)N(C[C@@]1(C#Cc3ccc(NC(=O)C4CCN(C)CC4)cc3)NC(=O)NC1=O)C2` [Compound 1909], the Ki under setting [1] came to 0.17 nM.
As for `COc1ccc2c(c1)C(=O)N(C[C@@]1(C#Cc3ccc(-n4cn[nH]c4=O)cc3)NC(=O)NC1=O)C2` [Compound 1914], the Ki under setting [1] amounted to 0.6 nM.
Turning to `COc1ccc2c(c1)C(=O)N(C[C@@]1(C#Cc3ccc(-n4c(C)n[nH]c4=O)cc3)NC(=O)NC1=O)C2` [Compound 1915], the inhibition constant Ki under setting [1] was determined as 0.3 nM.
The same measure, in the same setting: to `COc1ccc2c(c1)C(=O)N(C[C@@]1(C#Cc3ccc(-n4c(-c5cccnc5)n[nH]c4=O)cc3)NC(=O)NC1=O)C2` [Compound 1916] belongs 0.43 nM; to `CCN1CCN(C(=O)C2CCC(=O)N2c2ccc(OC)c(C#C[C@]3(CN4Cc5ccc(OC)cc5C4=O)NC(=O)NC3=O)n2)CC1` (some centres unmarked) [Compound 1917], 1.15 nM.
Consider `COc1ccc2c(c1)C(=O)N(C[C@@]1(C#Cc3ccccc3C=O)NC(=O)NC1=O)C2` [Compound 1918], for which, under setting [1], the Ki stood at 0.11 nM.
On to `COc1ccc2c(c1)C(=O)N(C[C@@]1(C#Cc3ccc(-c4nnc(N)o4)cc3)NC(=O)NC1=O)C2` [Compound 1919], for which the Ki under setting [1] stood at 0.33 nM.
In the case of `CCNc1nnc(-c2ccc(C#C[C@]3(CN4Cc5ccc(OC)cc5C4=O)NC(=O)NC3=O)cc2)o1` [Compound 1920], the Ki under setting [1] came to 0.29 nM.
For `COc1ccc2c(c1)C(=O)N(C[C@@]1(C#Cc3nc(N)ccc3O)NC(=O)NC1=O)C2` [Compound 1921], the inhibition constant (Ki) under setting [1] came out at 0.47 nM.
As to `COc1ccc2c(c1)C(=O)N(C[C@@]1(C#Cc3nc(-c4cccc(O)c4)ccc3OC)NC(=O)NC1=O)C2` [Compound 1922], the inhibitory constant (Ki) under setting [1] turned out to be 0.73 nM.
Still for that read-out and setting: for `CCN1CCN(C(=NO)c2cnc(C#C[C@]3(CN4Cc5ccc(OC)cc5C4=O)NC(=O)NC3=O)c(OC)c2)CC1` [Compound 1923] the value was 0.27 nM.
As for `COc1ccc2c(c1)C(=O)N(C[C@@]1(C#Cc3ncc(C(=NO)N4CCN(c5cnccn5)CC4)cc3OC)NC(=O)NC1=O)C2` [Compound 1924], the Ki is 0.25 nM.
For the molecule `COc1ccc2c(c1)C(=O)N(C[C@@]1(C#Cc3ccc(N(c4cccnc4)C4CCNCC4)nc3)NC(=O)NC1=O)C2` [Compound 2200], under setting [1], the Ki worked out at 1.02 nM.
Take `COc1ccc2c(c1)C(=O)N(C[C@@]1(C#Cc3ccc(C(c4ccc[nH]4)c4ccc[nH]4)cc3)NC(=O)NC1=O)C2` [Compound 2201]: the Ki under setting [1] came to 0.58 nM.
For `COc1ccc2c(c1)C(=O)N(C[C@@]1(C#Cc3ccc(CCN)cc3)NC(=O)NC1=O)C2` [Compound 2202], under setting [1], the Ki is 0.55 nM.
As for `COc1ccc2c(c1)C(=O)N(C[C@@]1(C#Cc3nc(N4CCN(c5ccncc5)CC4)ccc3OC)NC(=O)NC1=O)C2` [Compound 2205], the Ki under setting [1] worked out at 1.37 nM.
For the molecule `COc1ccc2c(c1)C(=O)N(C[C@@]1(C#Cc3cncc(-c4cn[nH]c4)c3)NC(=O)NC1=O)C2` [Compound 2207], the inhibitory constant (Ki) under setting [1] came out at 0.03 nM.
As to `COc1ccc2c(c1)C(=O)N(C[C@@]1(C#Cc3cncc(-c4ccc(C(N)=O)cc4)c3)NC(=O)NC1=O)C2` [Compound 2208], the inhibition constant (Ki) under setting [1] came out at 0.94 nM.
As to `COc1ccc2c(c1)C(=O)N(C[C@@]1(C#Cc3cnc(N)nc3N)NC(=O)NC1=O)C2` [Compound 2209], the Ki under setting [1] was 0.22 nM.
Consider `COc1ccc2c(c1)C(=O)N(C[C@@]1(C#Cc3cnc(N4CCC(=O)CC4)nc3N)NC(=O)NC1=O)C2` [Compound 2210], for which, under setting [1], the Ki came to 0.43 nM.
Turning to `COc1ccc2c(c1)C(=O)N(C[C@@]1(C#Cc3ccc(N4CCC(=O)CC4)nc3)NC(=O)NC1=O)C2` [Compound 2211], the inhibitory constant (Ki) under setting [1] was 0.5 nM.
`COc1ccc2c(c1)C(=O)N(C[C@@]1(C#Cc3cncc(-c4ccc(C(N)=O)o4)c3)NC(=O)NC1=O)C2` [Compound 2213]: the inhibition constant (Ki) under setting [1] amounted to 0.373 nM.
The same measure, in the same setting: for `COc1ccc2c(c1F)C(=O)N(C[C@@]1(C#Cc3ccc4c(c3)CCC43NC(=O)NC3=O)NC(=O)NC1=O)C2` (some centres unmarked) [Compound 2214] the value was 0.22 nM; for `COc1ccc2c(c1)C(=O)N(C[C@@]1(C#Cc3ccc(C4(CN5Cc6cc(O)ccc6C5=O)NC(=O)NC4=O)cc3)NC(=O)NC1=O)C2` (some centres unmarked) [Compound 2216], 0.81 nM.
As to `COc1ccc2c(c1)C(=O)N(C[C@@]1(C#Cc3ccc([C@@]4(CN5Cc6ccc(OC)cc6C5=O)NC(=O)NC4=O)cc3)NC(=O)NC1=O)C2` [Compound 2217], under setting [1], the inhibition constant Ki was determined as 0.19 nM.
In the case of `COc1ccc2c(c1)C(=O)N(C[C@@]1(C#Cc3cnc4ccccc4c3CO)NC(=O)NC1=O)C2` [Compound 2219], the inhibitory constant (Ki) under setting [1] is 0.21 nM.
Take `COc1ccc2c(c1)C(=O)N(C[C@@]1(C#Cc3cc(C(N)=O)ccc3C)NC(=O)NC1=O)C2` [Compound 2220]: under setting [1], the inhibition constant (Ki) stood at 0.15 nM.
The same measure, in the same setting: for `COc1ccc2c(c1)C(=O)N(C[C@@]1(C#Cc3ccc(CCNC(=O)C(F)(F)F)s3)NC(=O)NC1=O)C2` [Compound 2221] the value was 0.25 nM; for `COc1ccc2c(c1)C(=O)N(C[C@@]1(C#Cc3ccc(C4=NCCN4)cc3)NC(=O)NC1=O)C2` [Compound 2222], 0.63 nM; for `COc1ccc2c(c1)C(=O)N(C[C@@]1(C#Cc3ccc(-c4nnc[nH]4)cc3OC)NC(=O)NC1=O)C2` [Compound 2223], 0.2 nM.
`COc1ccc2c(c1)C(=O)N(C[C@@]1(C#Cc3ccc(-n4cncn4)cc3)NC(=O)NC1=O)C2` [Compound 2228]: under setting [1], the inhibition constant Ki amounted to 0.512 nM.
Take `COc1ccc2c(c1)C(=O)N(C[C@@]1(C#Cc3cc(Br)ccc3O)NC(=O)NC1=O)C2` [Compound 2229]: under setting [1], the Ki came to 0.43 nM.
Take `COc1ccc2c(c1)C(=O)N(C[C@@]1(C#Cc3ccc(OC)nc3OC)NC(=O)NC1=O)C2` [Compound 2230]: under setting [1], the Ki came to 1.09 nM.
For `COc1ccc2c(c1)C(=O)N(C[C@@]1(C#Cc3cnc(C)nc3O)NC(=O)NC1=O)C2` [Compound 2231], the Ki under setting [1] came to 0.52 nM.
With `COc1ccc2c(c1)C(=O)N(C[C@@]1(C#Cc3c(C)ncc(C(=O)O)c3O)NC(=O)NC1=O)C2` [Compound 2232], the inhibitory constant (Ki) under setting [1] was found to be 0.91 nM.
As for `COc1ccc2c(c1)C(=O)N(C[C@@]1(C#Cc3cncc(-c4csc(N)n4)c3)NC(=O)NC1=O)C2` [Compound 2233], the inhibitory constant (Ki) under setting [1] is 0.15 nM.
Regarding `COc1ccc2c(c1)C(=O)N(C[C@@]1(C#Cc3cncc(-c4cc[nH]n4)c3)NC(=O)NC1=O)C2` [Compound 2234], the Ki under setting [1] came out at 0.06 nM.
Still for that read-out and setting: to `COc1ccc2c(c1)C(=O)N(C[C@@]1(C#Cc3ccc4[nH]nc(N)c4c3)NC(=O)NC1=O)C2` [Compound 2237] belongs 0.25 nM.
In the case of `CCN1CCN(c2n[nH]c3ccc(C#C[C@]4(CN5Cc6ccc(OC)cc6C5=O)NC(=O)NC4=O)cc23)CC1` [Compound 2238], the Ki under setting [1] was 0.754 nM.
Still for that read-out and setting: for `COc1ccc2c(c1)C(=O)N(C[C@@]1(C#Cc3cnc4nc(O)oc4c3)NC(=O)NC1=O)C2` [Compound 2244] the value was 0.56 nM.
Consider `COc1ccc2c(c1)C(=O)N(C[C@@]1(C#Cc3ccc(C(=NO)c4ccc(F)cc4)cc3)NC(=O)NC1=O)C2` [Compound 2245], for which the inhibition constant Ki came out at 0.26 nM.
As for `COc1ccc2c(c1)C(=O)N(C[C@@]1(C#Cc3ccc(C(=NO)C4CCN(C)CC4)cc3)NC(=O)NC1=O)C2` [Compound 2246], the inhibition constant (Ki) was found to be 0.28 nM.
As to `COc1ccc2c(c1Cl)C(=O)N(CC1(C#Cc3cccnc3)NC(=O)NC1=O)C2` (centres unmarked) [Compound 2247], the inhibition constant Ki under setting [1] was 2.35 nM.
On to `COc1ccc2c(c1)C(=O)N(C[C@@]1(C#Cc3ccc(-c4noc(C)n4)cc3)NC(=O)NC1=O)C2` [Compound 2253], for which the inhibition constant Ki (TACE) was found to be 0.27 nM.
The same measure, in the same setting: to `COc1ccc2c(c1)C(=O)N(C[C@@]1(C#Cc3cncc(C(=O)NN)c3)NC(=O)NC1=O)C2` [Compound 2255] belongs 0.534 nM.
In the case of `COc1ccc2c(c1)C(=O)N(C[C@]1(C#Cc3cncc(C(=O)NN)c3)NC(=O)NC1=O)C2` [Compound 2256], the inhibition constant Ki (TACE) stood at 32.6 nM.
As to `COc1ccc2c(c1)C(=O)N(C[C@@]1(C#Cc3ccc(C4(C)NC(=O)NC4=S)cc3)NC(=O)NC1=O)C2` (some centres unmarked) [Compound 2258], for the setting “TACE”, the Ki was determined as 0.21 nM.
On the same count and under the same terms, to `COc1ccc2c(c1)C(=O)N(C[C@@]1(C#Cc3ccc(C4(C(N)=O)CC4)cc3)NC(=O)NC1=O)C2` [Compound 2260] belongs 0.28 nM; to `CNC(=O)C1(c2ccc(C#C[C@]3(CN4Cc5ccc(OC)cc5C4=O)NC(=O)NC3=O)cc2)CC1` [Compound 2261], 0.3 nM; to `COc1ccc2c(c1)C(=O)N(C[C@@]1(C#Cc3ccc(C(C)(C)C(N)=O)cc3)NC(=O)NC1=O)C2` [Compound 2262], 0.24 nM.
For `COc1ccc2c(c1)C(=O)N(C[C@@]1(C#Cc3cccnc3-c3cnn(C)c3)NC(=O)NC1=O)C2` [Compound 2263], the inhibitory constant (Ki) (TACE) was 0.2 nM.
The same measure, in the same setting: to `COc1ccc2c(c1)C(=O)N(C[C@@]1(C#Cc3cccnc3-c3c(C)nn(C)c3C)NC(=O)NC1=O)C2` [Compound 2264] belongs 0.22 nM; to `COc1ccc2c(c1)C(=O)N(C[C@@]1(C#Cc3cccnc3-c3cn[nH]c3)NC(=O)NC1=O)C2` [Compound 2266], 0.12 nM; to `COc1ccc2c(c1F)C(=O)N(C[C@@]1(C#Cc3cccnc3)NC(=O)NC1=O)C2` [Compound 2267], 0.11 nM.
As for `COc1ccc2c(c1)C(=O)N(C[C@@]1(C#Cc3ccc(-c4c(C)nn(C)c4C)nc3)NC(=O)NC1=O)C2` [Compound 2268], under “TACE”, the inhibition constant (Ki) is 0.21 nM.
Same read-out and setting: for `COc1ccc2c(c1)C(=O)N(C[C@@]1(C#Cc3cccnc3-c3cccnc3)NC(=O)NC1=O)C2` [Compound 2270] the value was 0.31 nM; for `COC(=O)C(c1ccc(C#C[C@]2(CN3Cc4ccc(OC)cc4C3=O)NC(=O)NC2=O)cc1)N1CCCNCC1` (some centres unmarked) [Compound 2271], 0.57 nM; for `COc1ccc2c(c1F)C(=O)N(C[C@@]1(C#Cc3cccnc3C)NC(=O)NC1=O)C2` [Compound 2273], 0.19 nM.
As for `CCN1CCC(C(=O)OC)(c2ccc(C#C[C@]3(CN4Cc5ccc(OC)cc5C4=O)NC(=O)NC3=O)cc2)CC1` [Compound 2276], the Ki (TACE) amounted to 0.283 nM.
`COc1ccc2c(c1)C(=O)N(C[C@@]1(C#Cc3ccc(-c4ccccc4O)nc3)NC(=O)NC1=O)C2` [Compound 2277]: the Ki (TACE) was determined as 1.67 nM.
